Measured values taken from patent publication US12246026B2, “Ganaxolone for use in treatment of status epilepticus” (Marinus Pharmaceuticals, Inc., priority 2019, dated 2025).

Test system: benzodiazepine-resistant SE
Assay: Benzodiazepine-resistant SE in experimental animals
Details: block of convulsions, reduction of EEG seizure activity, increased survival

## CC(=O)[C@H]1CC[C@H]2[C@@H]3CC[C@H]4C[C@](C)(O)CC[C@]4(C)[C@H]3CC[C@]12C [Ganaxolone, 3α-hydroxy-3β-methyl-5α-pregnan-20-one]
  effect on benzodiazepine-resistant SE: immediate and prolonged cessation of benzodiazepine-resistant SE
